## Binding of CDR-mutated scFvs to a peptide of the spike HR2 region

Values reported by Li et al. 2023, doi:10.1038/s41467-023-39022-2 (FLAb copy).

All variants were tested on one target, the spike HR2 peptide PDVDLGDISGINAS (SARS-CoV-2).

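The starting antibody came from a phage panning campaign against this peptide. This is the validation round: designs drawn from the data on random variants, tested in the same kind of assay. Their group label is 14H_En_HC (En: ensemble of fine-tuned language models; HC: hill climbing; a sequence that several methods proposed may carry one label only). AlphaSeq pools MATa yeast showing the antibodies with MATalpha yeast showing the peptide. Mating (16 h, 30 °C) was followed by selection of diploids and sequencing of their barcodes. A regression on co-assayed BCL2-family reference pairs converts the normalised counts of each replicate to an apparent Kd. Mating was done six times.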

Parent scFv Ab-14: VH joined to VL by a (GGGGS)3 linker. Changes lie in the heavy chain CDRs alone.
VH: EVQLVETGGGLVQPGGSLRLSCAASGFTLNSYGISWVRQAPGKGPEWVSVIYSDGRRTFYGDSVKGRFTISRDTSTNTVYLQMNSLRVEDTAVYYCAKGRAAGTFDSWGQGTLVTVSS
VL: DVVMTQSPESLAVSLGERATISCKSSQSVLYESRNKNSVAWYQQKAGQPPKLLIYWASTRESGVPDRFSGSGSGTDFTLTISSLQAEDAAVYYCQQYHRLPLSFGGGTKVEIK

Variants are written as CDR1, CDR2 and CDR3 of the heavy chain (limits as in the source). Parent: GFTLNSYGIS, VIYSDGRRTFYGDSVK, GRAAGTFDS. Scale: log10 of Kd in nM, estimated from mating counts; low values are strong binders. "nd" marks a missing value. The strain was present, yet no cells mated with the target were sequenced in that replicate, which points to weak or no binding. Nonspecific signal, from three strains lacking the peptide, appeared in 1% of pairings of all heavy chain designs, centred on 2.08 (5% of these signals below 0.84); values are not corrected for it. The control count says in how many pairings with the empty strains this scFv gave a signal.

Variant GFNLNEYGIS | VIYADGRRSFYSDSVK | GEVAGTFDV gave -0.35, -0.56, -0.87, -0.73, -0.84, -0.53 (controls 0 of 18).
Variant GFTLDEYGIS | VIYADGKRTFYADSVK | GNVAGTFDQ gave -0.29, -0.93, -0.75, -0.51, -0.76, -0.18 (controls 0 of 18).
Variant GFNLNEYGIS | VIYADGRRTFYADSVK | GNTAGTFDS gave -0.52, -0.51, -0.91, -0.59, -0.51, -0.49 (controls 0 of 18).
Variant GFDLNDYGIS | VIYADGRRTAYIDSVK | GEVAGTFDV gave -0.64, 0.47, -0.90, -0.74, -0.54, -0.76 (controls 0 of 18).
Variant GFDLDEYGIS | VIYADGMRTFYADSVK | GQNAGTFDQ gave 0.25, 0.20, 0.03, -0.14, 0.06, 0.13 (controls 2 of 18).
Variant GFDLNEYGIS | VIYADGMRTFYDDSVK | GQLAGTFDI gave 0.12, -0.70, -0.94, -0.55, -0.66, -0.66 (controls 0 of 18).
Variant GFDLDEYGIS | VIYADGRRTFYQDSVK | GNVAGTFDK gave 0.44, -0.09, 0.67, -0.25, 0.47, 0.92 (controls 0 of 18).
Variant GFTLDEYGIS | VIYADGRRTFYQDSVK | GNVAGTFDT gave -0.64, -0.37, -0.83, -0.63, -0.84, 0.24 (controls 0 of 18).
Variant GFDLNEYGIS | VIYADGVRTFYADSVK | GNQAGTFDL gave -0.34, -0.59, -0.53, -0.74, -0.67, -0.58 (controls 1 of 18).
Variant GFSLDEYGIS | VIYADGRRTFYADSVK | GTLAGTFDA gave nd, -0.60, -0.99, -1.10, -1.48, -0.90 (controls 0 of 18).
Variant GFDLNEYGIS | VIYADGRRTFYSDSVK | GNVAGTFDM gave -0.05, -0.47, -0.74, -1.30, -0.48, -0.64 (controls 0 of 18).
Variant GFDLNEYGIS | VIYADGRRTFYADSVK | GQLAGTFSI gave -0.46, -0.55, -0.84, -0.86, -0.65, -0.44 (controls 0 of 18).
Variant GFDLNEYGIS | VIYADGVRTFYIDSVK | GETAGTFDQ gave 0.22, -0.32, -0.31, -0.14, 0.04, 0.04 (controls 0 of 18).
Variant GFNLDEYGIS | VIYADGRRTFYADSVK | GNSAGTFDS gave -0.08, -0.20, -0.43, -0.41, -0.26, 0.03 (controls 0 of 18).
Variant GFDLEDYGIS | VIYADGRRTQYADSVK | GENAGTFDL gave 1.65, nd, 2.34, 2.01, 2.77, 2.01 (controls 1 of 18).
Variant GFDLNEYGIS | VIYADGRRTFYADSVK | GNVAGTFFD gave 0.02, -0.52, -0.49, -0.39, -0.52, -0.13 (controls 0 of 18).
Variant GFDLNEYGIS | VIYADGRRTFYSDSVK | GTNGGTFDI gave 0.19, 0.02, -0.28, -0.28, -0.07, 0.00 (controls 0 of 18).
Variant GFNLNEYGIS | VIYADGRRTFYADSVK | GQTAGTFIV gave nd, nd, nd, nd, nd, nd (controls 2 of 18).
Variant GFDLNEYGIS | VIYADGRRTFYADSVK | GENAGTFDF gave -0.29, -0.22, 0.01, -0.36, 0.06, -0.02 (controls 0 of 18).
Variant GFDLNEYGIS | VIYADGVRTFYVDSVK | GETAGTFVS gave -0.01, -0.15, -0.31, -0.22, 0.22, 0.20 (controls 0 of 18).
Variant GFDLNEYGIS | VIYADGRRTAYADSVK | GKNAGTFLV gave 0.82, 0.53, 0.15, 0.45, 0.48, 0.40 (controls 0 of 18).
Variant GFDLNEYGIS | VIYADGRRTFYADSVK | GNVAGTFNV gave -0.42, -0.51, -0.68, -0.61, -0.69, -0.48 (controls 1 of 18).
Variant GFDLNEYGIS | VIYADGMRTFYSDSVK | GENAGFFDS gave -0.04, -0.09, -0.23, -0.30, -0.23, 0.03 (controls 0 of 18).
Variant GFGLDEYGIS | VIYADGRRTFYTDSVK | GGNAGTFDV gave -0.83, -1.02, -1.35, -1.30, -0.81, -0.62 (controls 0 of 18).
Variant GFDLNEYGIS | VIYADGMRTFYSDSVK | GQLAGTFDS gave -0.44, -0.58, -0.66, -0.84, -0.70, -0.51 (controls 0 of 18).
Variant GFDLNEYGIS | VIYADGRRTFYADSVK | GQNAGTFDM gave -1.55, nd, -1.78, -1.56, 0.01, -1.76 (controls 0 of 18).
Variant GFDLNEYGIS | VIYADGRRTFYADSVK | GEIAGTFDT gave -0.12, -0.45, -0.35, -0.53, -0.31, -0.16 (controls 0 of 18).
Variant GFDLNEYGIS | VIYADGMRTFYTDSVK | GEVAGTFDS gave 0.00, -0.44, -0.39, -0.63, -0.63, -0.39 (controls 0 of 18).
Variant GFDLNEYGIS | VIYADGRRTFYTDSVK | GTVAGTFDV gave 0.13, 0.01, 0.14, -0.15, 0.14, 0.29 (controls 0 of 18).
Variant GFDLNEYGIS | VIYADGRRTFYADSVK | GEIAGTFDS gave -0.34, -0.47, -1.02, -0.78, -0.82, -0.56 (controls 1 of 18).

Extract of 4 entries:

CDR-H1,CDR-H2,CDR-H3,log10 Kd (nM) by replicate,control signals
GFNLDEYGIS,VIYADGRRTFYADSVK,GNSAGTFDS,"-0.08, -0.20, -0.43, -0.41, -0.26, 0.03",0/18
GFDLNEYGIS,VIYADGRRTFYADSVK,GNVAGTFFD,"0.02, -0.52, -0.49, -0.39, -0.52, -0.13",0/18
GFDLNEYGIS,VIYADGRRTAYADSVK,GKNAGTFLV,"0.82, 0.53, 0.15, 0.45, 0.48, 0.40",0/18
GFDLNEYGIS,VIYADGRRTFYADSVK,GEIAGTFDS,"-0.34, -0.47, -1.02, -0.78, -0.82, -0.56",1/18

The authors averaged sequences with at least three values out of six and counted those with two or fewer as poor binders. The range of this assay differs from that of the first round, and the authors advise against merging the two.